This is an account of results in the Kinase Knowledgebase extract (Sharma et al. 2016).

Protein sequences, listed by entry. Tags and fused reporters are not part of them. Lines headed by an entry give the natural chain unless they say otherwise; changes in a name come on top.
UniProt O00329: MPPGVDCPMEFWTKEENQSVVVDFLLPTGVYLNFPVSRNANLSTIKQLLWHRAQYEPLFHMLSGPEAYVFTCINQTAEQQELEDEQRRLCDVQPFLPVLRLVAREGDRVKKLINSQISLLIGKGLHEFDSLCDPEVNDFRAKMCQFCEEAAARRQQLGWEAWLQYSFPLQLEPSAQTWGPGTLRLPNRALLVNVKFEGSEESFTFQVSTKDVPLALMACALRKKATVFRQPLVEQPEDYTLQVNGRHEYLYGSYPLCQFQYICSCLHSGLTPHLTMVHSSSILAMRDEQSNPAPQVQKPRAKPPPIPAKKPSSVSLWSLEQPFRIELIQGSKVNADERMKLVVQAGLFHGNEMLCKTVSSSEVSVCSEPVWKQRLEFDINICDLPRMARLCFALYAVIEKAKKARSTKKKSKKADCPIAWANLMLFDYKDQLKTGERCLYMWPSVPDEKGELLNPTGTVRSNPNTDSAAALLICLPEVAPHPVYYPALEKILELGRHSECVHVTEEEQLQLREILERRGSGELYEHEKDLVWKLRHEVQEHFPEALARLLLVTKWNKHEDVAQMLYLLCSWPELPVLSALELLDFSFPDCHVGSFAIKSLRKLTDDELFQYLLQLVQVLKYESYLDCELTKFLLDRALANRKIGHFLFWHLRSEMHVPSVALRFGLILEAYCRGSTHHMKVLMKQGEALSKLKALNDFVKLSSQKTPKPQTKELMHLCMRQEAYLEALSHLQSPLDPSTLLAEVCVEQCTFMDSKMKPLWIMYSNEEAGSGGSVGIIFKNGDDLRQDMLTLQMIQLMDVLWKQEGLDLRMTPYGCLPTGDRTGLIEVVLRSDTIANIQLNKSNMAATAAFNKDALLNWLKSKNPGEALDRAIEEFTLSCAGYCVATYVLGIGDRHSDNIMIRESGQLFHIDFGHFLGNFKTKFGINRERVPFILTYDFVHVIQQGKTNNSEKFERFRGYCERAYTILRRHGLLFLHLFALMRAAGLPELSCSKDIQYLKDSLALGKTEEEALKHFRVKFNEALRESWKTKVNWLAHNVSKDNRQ

This experiment concerns the target PIK3CD (Human) (UniProt O00329). The experiment can be described thus: Enzyme Assay.

One may read the IC50 as the concentration at which inhibition is half-maximal. Turning to `Nc1cnc(-n2c([C@@H](Nc3ncnc(N)c3Cl)C3CC3)nc3cccc(Cl)c3c2=O)cn1`, the IC50 came to 30 nM.
